pIC50: −log10 of the molar value.
Molecular target: c-kit (Homo sapiens (Human), UniProt P10721)
Assay: Mo7e cell proliferation assay (SCF dependent proliferation)
Assay type: cell-based
Conditions: Mo7e cells stimulated with human recombinant SCF, 48 hours, 1% FBS
Procedure: Compounds of Formula (I) and Formula (II) provided herein were assayed to measure their capacity to inhibit c-kit and PDGFR kinases using the appropriate assay described below: c-Kit inhibition was evaluated using the Mo7e cell proliferation assay, and PDGFR inhibition was evaluated using the Rat A10 cell proliferation assay and the Human TG/HA-VSMC cell proliferation assay.
Mo7e Cell Proliferation Assay
The compounds of Table 1 and Table 2 were tested for inhibition of SCF dependent proliferation using human Mo7e cells which endogenously express c-kit in a 384 well format. […] After 48 hours of incubation at 37° C., cell viability was measured by adding 25 uL of CellTiter Glo (Promega) to the cells and the luminescence was measured by a CLIPR CCD camera (Molecular Devices).
The IC50 value is given as that concentration of the test compound in question that provoke a response halfway between the baseline and maximum responses.

Amino acid sequences for entries named in this document (tags omitted). Residues count along the entry.
UniProt P10721, 26-976: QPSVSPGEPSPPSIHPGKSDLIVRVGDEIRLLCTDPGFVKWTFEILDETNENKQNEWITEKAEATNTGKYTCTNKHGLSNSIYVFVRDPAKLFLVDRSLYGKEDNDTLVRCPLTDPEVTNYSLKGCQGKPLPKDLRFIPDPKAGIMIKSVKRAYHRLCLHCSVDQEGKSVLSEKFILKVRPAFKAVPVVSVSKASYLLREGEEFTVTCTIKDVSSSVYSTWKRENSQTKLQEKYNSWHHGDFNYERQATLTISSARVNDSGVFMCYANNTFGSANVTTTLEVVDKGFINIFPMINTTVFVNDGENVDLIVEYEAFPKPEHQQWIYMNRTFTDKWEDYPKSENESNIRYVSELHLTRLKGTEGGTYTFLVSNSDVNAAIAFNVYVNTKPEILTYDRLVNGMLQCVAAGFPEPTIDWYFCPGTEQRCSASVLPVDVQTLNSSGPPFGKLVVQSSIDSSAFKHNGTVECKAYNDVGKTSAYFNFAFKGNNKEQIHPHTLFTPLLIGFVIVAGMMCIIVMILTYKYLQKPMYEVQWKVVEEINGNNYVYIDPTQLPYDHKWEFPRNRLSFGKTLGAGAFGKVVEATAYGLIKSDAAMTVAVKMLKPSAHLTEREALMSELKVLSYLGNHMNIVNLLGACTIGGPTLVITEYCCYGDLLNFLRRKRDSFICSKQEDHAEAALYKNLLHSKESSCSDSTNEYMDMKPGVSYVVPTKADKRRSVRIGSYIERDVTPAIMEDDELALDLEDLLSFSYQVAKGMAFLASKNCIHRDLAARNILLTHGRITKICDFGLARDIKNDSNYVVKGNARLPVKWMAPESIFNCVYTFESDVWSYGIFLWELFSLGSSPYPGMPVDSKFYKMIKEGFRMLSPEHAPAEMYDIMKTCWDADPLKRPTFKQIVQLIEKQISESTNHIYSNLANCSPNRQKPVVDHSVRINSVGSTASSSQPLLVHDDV

`Cc1ccc(-c2noc(C3CC(O)C3)n2)cc1NC(=O)c1cnc2ccccn12` (centres unmarked) [F122] showed a pIC50 of 6.87.

Compound `Cc1ccc(-c2noc(C3CC4(CC(O)C4)C3)n2)cc1NC(=O)c1cnc2ccccn12` (centres unmarked) [F100, N-(5-(5-(6-hydroxyspiro[3.3]heptan-2-yl)-1,2,4-oxadiazol-3-yl)-2-methylphenyl)imidazo[1,2-a]pyridine-3-carboxamide] has a pIC50 of 7.18.
